Values of other authors, collected in publication PMC6004248 (Clinical cancer research : an official journal of the …, 2018).
Like-named read-outs stand apart in the source and are kept apart here.

Experiments:
[1] = test system: advanced, ALK-positive NSCLC; conditions: previously treated patients; cited from earlier work
[2] = test system: advanced, ALK-positive NSCLC; conditions: untreated patients; cited from earlier work
[3] = test system: ALK-positive NSCLC; conditions: cited from earlier work

SMILES	median PFS [1] [months]	response rate [1] [%]	median PFS [2] [months]	response rate [2] [%]	AEs leading to discontinuation [3] [%]	AEs leading to dose interruption [3] [%]	AEs leading to dose reduction [3] [%]	patients who had a SAE [3]	RR ([3]; first line) [%]	intracranial response ([3]; first line) [%]	median PFS ([3]; first line) [months]
C[C@@H](Oc1cc(-c2cnn(C3CCNCC3)c2)cnc1N)c1c(Cl)ccc(F)c1Cl [crizotinib]	7.7	65	10.9	74							
CCc1cc2c(cc1N1CCC(N3CCOCC3)CC1)C(C)(C)c1[nH]c3cc(C#N)ccc3c1C2=O [alectinib]					11	19	16	Twenty-eight	82	81	25.7
